# In patent US20250388544A1, “HETEROAROMATIC INHIBITORS OF ASTACIN PROTEINASES” (VIVORYON THERAPEUTICS N.V., priority 2019, published 2025):
# Amino acid sequences for entries named in this document (tags omitted). Residues count along the entry.
# UniProt Q16819, 66-746 limits assumed: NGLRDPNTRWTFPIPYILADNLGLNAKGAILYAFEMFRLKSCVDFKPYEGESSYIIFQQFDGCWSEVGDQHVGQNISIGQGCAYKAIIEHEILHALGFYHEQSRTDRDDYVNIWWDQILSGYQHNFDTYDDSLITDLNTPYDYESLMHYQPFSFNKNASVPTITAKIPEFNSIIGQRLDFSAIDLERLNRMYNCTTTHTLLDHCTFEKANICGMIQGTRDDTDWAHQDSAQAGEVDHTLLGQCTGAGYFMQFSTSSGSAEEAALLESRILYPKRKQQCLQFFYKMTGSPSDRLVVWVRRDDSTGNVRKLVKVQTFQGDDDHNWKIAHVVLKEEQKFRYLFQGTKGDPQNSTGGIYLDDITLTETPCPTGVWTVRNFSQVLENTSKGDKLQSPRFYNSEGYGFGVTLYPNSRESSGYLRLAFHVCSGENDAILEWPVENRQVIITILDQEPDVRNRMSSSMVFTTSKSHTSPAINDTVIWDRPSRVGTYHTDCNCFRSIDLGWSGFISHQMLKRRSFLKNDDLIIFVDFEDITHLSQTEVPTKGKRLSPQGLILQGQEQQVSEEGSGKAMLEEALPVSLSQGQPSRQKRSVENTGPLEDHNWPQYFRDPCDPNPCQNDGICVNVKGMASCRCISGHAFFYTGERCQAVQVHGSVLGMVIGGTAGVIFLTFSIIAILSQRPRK
# UniProt Q16820, 62-701 limits assumed: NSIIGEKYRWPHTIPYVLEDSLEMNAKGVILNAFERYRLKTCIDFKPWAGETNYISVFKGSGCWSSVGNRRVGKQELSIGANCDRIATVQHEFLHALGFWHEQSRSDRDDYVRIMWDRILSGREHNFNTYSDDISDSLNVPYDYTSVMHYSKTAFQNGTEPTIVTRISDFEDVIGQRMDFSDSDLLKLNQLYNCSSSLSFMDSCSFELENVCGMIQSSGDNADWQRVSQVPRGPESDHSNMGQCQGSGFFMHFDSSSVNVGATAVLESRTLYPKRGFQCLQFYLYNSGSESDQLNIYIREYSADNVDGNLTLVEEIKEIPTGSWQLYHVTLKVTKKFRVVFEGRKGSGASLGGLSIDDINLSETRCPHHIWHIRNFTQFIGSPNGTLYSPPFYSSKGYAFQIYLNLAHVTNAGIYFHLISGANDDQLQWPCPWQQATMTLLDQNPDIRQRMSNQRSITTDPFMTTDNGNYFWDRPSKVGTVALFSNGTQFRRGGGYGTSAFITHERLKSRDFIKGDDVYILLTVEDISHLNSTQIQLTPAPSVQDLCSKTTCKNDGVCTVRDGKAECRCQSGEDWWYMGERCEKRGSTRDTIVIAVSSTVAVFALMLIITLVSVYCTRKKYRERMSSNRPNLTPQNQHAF
# UniProt P08253, 110-660 limits assumed: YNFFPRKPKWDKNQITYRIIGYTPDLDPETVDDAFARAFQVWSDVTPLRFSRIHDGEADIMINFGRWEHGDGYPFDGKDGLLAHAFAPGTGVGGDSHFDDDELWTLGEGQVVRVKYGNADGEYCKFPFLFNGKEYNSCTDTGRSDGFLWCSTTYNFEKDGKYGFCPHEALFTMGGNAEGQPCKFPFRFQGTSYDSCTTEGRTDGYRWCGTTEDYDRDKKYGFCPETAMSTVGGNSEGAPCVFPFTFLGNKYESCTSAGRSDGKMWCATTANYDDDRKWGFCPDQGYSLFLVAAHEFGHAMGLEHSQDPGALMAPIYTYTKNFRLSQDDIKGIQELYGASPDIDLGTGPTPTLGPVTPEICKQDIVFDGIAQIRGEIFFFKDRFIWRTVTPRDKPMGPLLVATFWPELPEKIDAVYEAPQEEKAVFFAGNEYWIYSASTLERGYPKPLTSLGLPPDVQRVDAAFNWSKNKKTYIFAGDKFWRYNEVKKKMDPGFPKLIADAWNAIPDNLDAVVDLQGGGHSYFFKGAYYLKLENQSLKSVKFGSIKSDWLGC
# UniProt O14672, 214-748 limits assumed: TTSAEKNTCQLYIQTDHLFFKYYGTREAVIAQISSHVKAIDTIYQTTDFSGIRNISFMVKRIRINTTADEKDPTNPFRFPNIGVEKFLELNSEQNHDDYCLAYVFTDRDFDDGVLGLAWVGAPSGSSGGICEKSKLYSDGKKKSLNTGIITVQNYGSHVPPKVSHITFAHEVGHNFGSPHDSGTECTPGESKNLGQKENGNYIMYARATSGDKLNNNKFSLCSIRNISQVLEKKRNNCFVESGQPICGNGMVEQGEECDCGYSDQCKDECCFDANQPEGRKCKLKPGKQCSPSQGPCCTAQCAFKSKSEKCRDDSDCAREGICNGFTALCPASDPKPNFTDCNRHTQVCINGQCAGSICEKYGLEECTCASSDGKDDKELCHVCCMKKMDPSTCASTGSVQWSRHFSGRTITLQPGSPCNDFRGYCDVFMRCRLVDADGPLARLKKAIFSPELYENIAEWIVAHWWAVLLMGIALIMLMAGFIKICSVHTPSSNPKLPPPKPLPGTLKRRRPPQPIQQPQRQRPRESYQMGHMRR
# UniProt P78536, 215-824 limits assumed: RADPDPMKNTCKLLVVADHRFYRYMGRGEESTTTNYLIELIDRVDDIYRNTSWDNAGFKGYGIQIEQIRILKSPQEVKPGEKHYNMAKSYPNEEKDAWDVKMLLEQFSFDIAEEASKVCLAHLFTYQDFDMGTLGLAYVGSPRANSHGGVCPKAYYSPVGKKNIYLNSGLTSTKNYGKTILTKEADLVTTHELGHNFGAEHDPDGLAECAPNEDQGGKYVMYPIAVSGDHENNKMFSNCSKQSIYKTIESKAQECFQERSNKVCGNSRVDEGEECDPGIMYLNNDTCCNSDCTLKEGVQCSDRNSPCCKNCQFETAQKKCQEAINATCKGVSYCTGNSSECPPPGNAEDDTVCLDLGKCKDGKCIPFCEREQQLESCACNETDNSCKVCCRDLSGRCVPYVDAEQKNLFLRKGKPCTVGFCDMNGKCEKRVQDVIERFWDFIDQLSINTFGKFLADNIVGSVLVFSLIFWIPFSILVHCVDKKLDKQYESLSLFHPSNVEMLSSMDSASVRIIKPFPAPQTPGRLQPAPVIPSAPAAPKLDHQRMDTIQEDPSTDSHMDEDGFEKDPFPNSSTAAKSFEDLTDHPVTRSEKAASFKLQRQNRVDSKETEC
# UniProt P14780, 107-707 limits assumed: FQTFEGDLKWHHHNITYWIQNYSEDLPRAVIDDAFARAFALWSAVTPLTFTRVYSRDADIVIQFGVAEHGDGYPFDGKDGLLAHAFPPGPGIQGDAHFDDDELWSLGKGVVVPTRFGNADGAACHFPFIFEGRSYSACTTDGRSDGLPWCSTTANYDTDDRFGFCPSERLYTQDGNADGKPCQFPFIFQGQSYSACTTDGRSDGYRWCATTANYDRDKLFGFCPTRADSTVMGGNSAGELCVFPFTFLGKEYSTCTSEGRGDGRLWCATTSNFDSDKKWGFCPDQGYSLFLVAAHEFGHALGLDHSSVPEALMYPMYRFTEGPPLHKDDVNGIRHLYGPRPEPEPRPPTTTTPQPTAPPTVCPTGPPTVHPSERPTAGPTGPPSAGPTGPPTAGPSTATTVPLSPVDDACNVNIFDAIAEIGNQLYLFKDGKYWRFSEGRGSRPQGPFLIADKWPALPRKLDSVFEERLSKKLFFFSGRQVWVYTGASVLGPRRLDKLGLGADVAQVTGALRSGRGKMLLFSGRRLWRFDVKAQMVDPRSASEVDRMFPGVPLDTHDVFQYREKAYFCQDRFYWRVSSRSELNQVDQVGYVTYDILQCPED
# pIC50, pKi: −log10 of the molar value.
# Columns and labels:
# hMeprin α [1] = target: T1, hMeprin α (Homo sapiens, UniProt Q16819); test: Enzymatic assay, quenched peptide substrate cleavage, method A; conditions: read-out: Meprin alpha IC50, geometric mean (geometric SD factor in parentheses)
# hMeprin β [2] = target: T2, hMeprin β (Homo sapiens, UniProt Q16820); test: as above; conditions: read-out: Meprin beta IC50, geometric mean (geometric SD factor in parentheses)
# hMeprin α [3] = target: T1, hMeprin α; test: Enzymatic assay, quenched peptide substrate cleavage, method B
# hMeprin β [4] = target: T2, hMeprin β; test: as above
# hMMP 13 = hMMP 13 (Homo sapiens, UniProt P45452); test: Residual enzyme activity of other metalloproteases; format: biochemical
# hMMP 2 = hMMP 2 (Homo sapiens, UniProt P08253); test: Residual enzyme activity of other metalloproteases; format: biochemical
# hADAM 10 = hADAM 10 (Homo sapiens, UniProt O14672); test: Residual enzyme activity of other metalloproteases
# hADAM 17 = hADAM 17 (Homo sapiens, UniProt P78536); test: Residual enzyme activity of other metalloproteases
# hMMP 9 = hMMP 9 (Homo sapiens, UniProt P14780); test: Residual enzyme activity of other metalloproteases
compound,measurement,setting,value
O=C(Cn1c(-c2ccc(Cl)c(O)c2F)nc2ccccc21)NO,pIC50,hMeprin α [1],6.70
same,pIC50,hMeprin β [2],7.34
same,pIC50,"hMeprin α [3]; read-out: Meprin alpha IC50, geometric mean (geometric SD factor in parentheses)",6.59
same,pKi,"hMeprin α [3]; read-out: Meprin alpha Ki(app), Morrison's equation, geometric mean (geometric SD factor in parentheses)",6.58
same,pIC50,"hMeprin β [4]; read-out: Meprin beta IC50, geometric mean (geometric SD factor in parentheses)",6.59
same,pKi,"hMeprin β [4]; read-out: Meprin beta Ki(app), Morrison's equation, geometric mean (geometric SD factor in parentheses)",6.60
same,Residual enzyme activity MMP13,hMMP 13; 10 μM inhibitor,105%
same,Residual enzyme activity MMP13,hMMP 13; 200 μM inhibitor,84%
same,Residual enzyme activity MMP2,hMMP 2; 10 μM inhibitor,93%
same,Residual enzyme activity MMP2,hMMP 2; 200 μM inhibitor,83%
same,Residual enzyme activity ADAM10,hADAM 10; 10 μM inhibitor,86%
same,Residual enzyme activity ADAM10,hADAM 10; 200 μM inhibitor,78%
same,Residual enzyme activity ADAM17,hADAM 17; 10 μM inhibitor,92%
same,Residual enzyme activity ADAM17,hADAM 17; 200 μM inhibitor,82%
same,Residual enzyme activity MMP9,hMMP 9; 10 μM inhibitor,94%
same,Residual enzyme activity MMP9,hMMP 9; 200 μM inhibitor,50%
